molecular target: human FSH receptor (Homo sapiens, UniProt P23945); assay: hFSHR CHO cAMP assay (rhFSHR-cLUC cells, FSH-stimulated cAMP, radioimmunoassay); conditions: read-out: EC50 hFSHR CHO cAMP; inhibition of cAMP produced by EC70 dose of FSH (4.85 nM); maximum concentration 50 μM
Description: Minimum Essential Medium-Alpha (MEM-alpha), fetal bovine serum (FBS), penicillin, streptomycin, geneticin, trypsin-EDTA, Hanks' Balanced Salt Solution (no Calcium chloride, Magnesium chloride, Magnesium sulfate, or phenol red; Ca-Mg free HBSS) were purchased from Gibco BRL (Gaithersburg, Md.). The cells used for the FSH bioassay (rhFSHR-cLUC) were Chinese Hamster Ovary cells (K-1; ATCC) stably transformed with human FSH receptor (pSVK-FSHr) and a cAMP luciferase reporter gene (responsive CGα-180LUC). Follicle Stimulating Hormone (Metrodin; Fertinex) was purchased from Serono, Ltd. (Norwell, Mass.).
The rhFSHR-cLUC cell cultures were maintained in MEM-Alpha supplemented with 10% heat-inactivated FBS (HIFBS), 100 U/ml penicillin, 100 μg/mL streptomycin, and included 0.1 g/L geneticin for stable cell selection.
Forty-eight hours after the cells were plated in sterile 96-well culture plates (Corning, Corning, N.Y.) the spent media was removed and 50 μl assay media (modified growth media with 2% HIFBS) containing 2 mM IBMX (3-isobutyl-1-methyl-xanthine) was added to the cells. Compounds (25 μl) in the appropriate concentration were added followed 5 minutes later by an EC70 dose of FSH (25 μl; 160 ng/ml; 4.85 nM). After 10 minutes @ 22.5° C. (room temperature) the reaction was terminated by addition of 25 μL 0.5 N hydrochloric acid to each well. The amount of cAMP produced was measured by radioimmunoassay in a FlashPlate (DuPont, Boston, Mass.). To each flash plate 60 μL flash plate buffer was added followed by 40 μL acidified cell sample or cAMP standard, followed with the addition of 100 μl ^125l-cAMP trace. The FlashPlates were sealed, incubated overnight @ room temperature, and counted in a Packard TopCount (Packard Instrument Co., Meriden, Conn.). The cAMP radioimmunoassay results were calculated using DPM conversion and log-logit transformation of % binding (Excel program).
Test compounds were solubilized in 30% dimethyl sulfoxide (DMSO) at a concentration of 10 mM before diluting to appropriate concentrations in assay medium. The final DMSO concentration in the treated cells and in the control cells was 0.75%.
For individual experiments, a set of samples were tested including a vehicle control (assay buffer), a reference compound (hFSH) at a range of concentrations designed to elicit a minimal to maximal response, and several concentrations of test compounds together with an EC70 concentration of standard (hFSH challenge). Each compound was performed in duplicates for the primary evaluation and quadruplicates for the dose-ranging experiments. The cAMP radioimmunoassay raw data (pmol) were calculated to provide average pmol cAMP produced/ml and the percent inhibition was calculated as shown below.
% Inh=[1−(Avg.pmoltest compound+standard)/(Avg.pmolstandard)]×100
EC50 values were calculated from an analysis of the concentration-inhibition data using a linear analysis of the data transformed to a log-logit format.

The chains behind the UniProt entries cited, without tags or fusion partners. Residues count along the entry.
UniProt P23945, 18-695 limits assumed: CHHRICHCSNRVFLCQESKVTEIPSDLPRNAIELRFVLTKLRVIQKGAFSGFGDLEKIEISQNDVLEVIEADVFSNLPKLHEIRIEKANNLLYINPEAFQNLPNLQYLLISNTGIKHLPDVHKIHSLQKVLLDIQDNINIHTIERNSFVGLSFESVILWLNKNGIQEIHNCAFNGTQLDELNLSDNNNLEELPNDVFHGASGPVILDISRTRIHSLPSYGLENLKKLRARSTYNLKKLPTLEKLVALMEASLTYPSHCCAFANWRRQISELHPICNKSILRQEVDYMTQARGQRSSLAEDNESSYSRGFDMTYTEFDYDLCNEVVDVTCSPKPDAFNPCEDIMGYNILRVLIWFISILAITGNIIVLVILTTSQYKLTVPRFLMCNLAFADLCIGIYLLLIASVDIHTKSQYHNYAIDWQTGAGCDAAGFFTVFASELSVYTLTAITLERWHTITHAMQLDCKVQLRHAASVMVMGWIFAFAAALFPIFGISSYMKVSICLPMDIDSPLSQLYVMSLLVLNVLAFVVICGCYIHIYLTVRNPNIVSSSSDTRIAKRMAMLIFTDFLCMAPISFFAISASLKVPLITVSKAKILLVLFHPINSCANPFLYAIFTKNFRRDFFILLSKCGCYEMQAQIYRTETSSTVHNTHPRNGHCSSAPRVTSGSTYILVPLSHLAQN

Row | SMILES | EC50
1 | C[C@@H](CN(CC(=O)NCc1ccc(CN)cc1)S(=O)(=O)c1ccc(-c2ccccc2S(=O)(=O)NC(C)(C)C)cc1)c1ccccc1 | 23500 nM
2 | C[C@@H](CN(CC(=O)NCc1ccc(CN)cc1)S(=O)(=O)c1ccc(-c2cc(Cl)cc(Cl)c2)cc1)c1ccccc1 | > 50000 nM
3 | Cc1ccc(-c2ccc(S(=O)(=O)N(CC(=O)NCc3ccc(CN)cc3)C[C@H](C)c3ccccc3)cc2)cc1 [465] | 2190 nM
4 | COc1ccccc1CCN(CC(=O)N1CCNCC1)S(=O)(=O)c1ccc(-c2cccnc2)cc1 | 28500 nM
5 | COc1ccccc1CN(CC(=O)N1CCNCC1)S(=O)(=O)c1ccc(-c2ccc(F)cc2)cc1 | ≥ 50000 nM
6 | COc1ccccc1CCN(CC(=O)NCc1ccc(CN)cc1)S(=O)(=O)c1ccc(-c2ccc(Cl)cc2Cl)s1 | ≥ 50000 nM
7 | COc1ccccc1CN(CC(=O)N1CCNCC1)S(=O)(=O)c1ccc(-c2cccs2)cc1 | ≥ 50000 nM
8 | COc1cccc(-c2ccc(S(=O)(=O)N(CCc3ccccc3OC)CC(=O)N3CCNCC3)cc2)c1 | 8960 nM
9 | COc1ccc(-c2cccc(S(=O)(=O)N(CCc3ccccc3OC)CC(=O)NCc3ccc(CN)cc3)c2)cc1 | 5330 nM
10 | COc1ccc(-c2ccc(S(=O)(=O)N(CC(=O)N3CCNCC3)Cc3ccccc3OC)cc2)c(OC)c1 | ≥ 50000 nM
11 | COc1ccccc1CCN(CC(=O)NCc1ccc(CN)cc1)S(=O)(=O)c1cccc(-c2ccccc2)c1 | 3930 nM
12 | COc1ccc(NC(=O)C(C)(C)C)c(-c2ccc(S(=O)(=O)N(CC(=O)NCc3ccc(CN)cc3)C[C@H](C)c3ccccc3)cc2)c1 | 20900 nM
13 | Cc1ccccc1-c1ccc(C(=O)N(CC(=O)NCc2ccc(CN)cc2)C[C@H](C)c2ccccc2)cc1 | > 50000 nM
14 | COc1ccc(S(=O)(=O)N(CCc2ccccc2OC)CC(=O)NCc2ccc(CN)cc2)c([N+](=O)[O-])c1 | 5760 nM
15 | COc1ccccc1CN(CC(=O)N1CCNCC1)S(=O)(=O)c1ccc(-c2ccccc2Cl)cc1 | ≥ 50000 nM
16 | COc1ccccc1CCN(CC(=O)NCc1ccc(CN)cc1)S(=O)(=O)c1ccc(-c2ccccc2)s1 | 19500 nM
17 | COc1ccc(OC)c(-c2ccccc2S(=O)(=O)N(CCc2ccccc2OC)CC(=O)NCc2ccc(CN)cc2)c1 | 10500 nM
18 | COc1ccccc1CCN(CC(=O)NCc1ccc(CN)cc1)S(=O)(=O)c1cccc(-c2cccc(N)c2)c1 | 2630 nM

Row | SMILES | EC50
19 | COc1ccccc1CCN(CC(=O)NCc1ccc(CN)cc1)S(=O)(=O)c1ccccc1-c1cccc(F)c1 | 3650 nM
20 | COc1ccccc1CCN(CC(=O)NCc1ccc(CN)cc1)S(=O)(=O)c1cccc(-c2ccc(C)cc2)c1 | 6860 nM
21 | COc1ccccc1CCN(CC(=O)NCc1ccc(CN)cc1)S(=O)(=O)c1ccc(-c2ccccc2OC)s1 | 2080 nM
22 | NCCCCCCNC(=O)CN(CCc1ccccc1C(F)(F)F)S(=O)(=O)c1ccc(-c2ccccc2Cl)cc1 | 3180 nM
23 | COc1ccccc1CCN(CC(=O)NCc1ccc(CN)cc1)S(=O)(=O)c1cccc(-c2cccc3ccccc23)c1 | 17100 nM
24 | COc1ccccc1CCN(CC(=O)NCc1ccc(CN)cc1)S(=O)(=O)c1ccccc1-c1ccccc1OC | 2100 nM
25 | COc1ccccc1CN(CC(=O)NCc1cccc(CN)c1)S(=O)(=O)c1ccc(-c2ccc(Cl)cc2Cl)cc1 | 3150 nM
26 | COc1ccccc1CCN(CC(=O)NCc1ccc(CN)cc1)S(=O)(=O)c1cccc(-c2ccc3c(c2)OCO3)c1 | 2440 nM
27 | COc1ccccc1CCN(CC(=O)NCc1ccc(CN)cc1)S(=O)(=O)Cc1ccccc1 | 10400 nM
28 | C[C@H](CN(CC(=O)NCc1ccc(CN)cc1)S(=O)(=O)c1ccc(C(C)(C)C)cc1)c1ccccc1 | 3000 nM
29 | COc1ccccc1CCN(CC(=O)N1CCNCC1)S(=O)(=O)c1ccc(-c2cccc(N)c2)cc1 | 8660 nM
30 | COc1ccccc1CCN(CC(=O)NCc1ccc(CN)cc1)S(=O)(=O)c1ccccc1-c1cccc(C)c1 | 5170 nM
31 | COc1ccccc1CCN(CC(=O)NCc1ccc(CN)cc1)S(=O)(=O)c1cc([N+](=O)[O-])c(Cl)s1 | ≥ 50000 nM
32 | COc1ccccc1CCN(CC(=O)N1CCNCC1)S(=O)(=O)c1ccc(-c2ccsc2)cc1 | 8580 nM
33 | COc1ccccc1CCN(CC(=O)NCc1ccc(CN)cc1)S(=O)(=O)c1ccc(-c2c(C)noc2C)s1 | 5680 nM
34 | COc1ccc(-c2ccc(S(=O)(=O)N(CC(=O)N3CCNCC3)Cc3ccccc3OC)cc2)cc1 | ≥ 50000 nM
35 | COc1ccccc1CN(CC(=O)N1CCNCC1)S(=O)(=O)c1ccc(-c2cccc(Cl)c2)cc1 | ≥ 50000 nM

Compounds with a lower EC50, results first:

Row | EC50 | SMILES
36 | 1930 nM | C[C@H](CN(CC(=O)NCC1CCCC(CN)C1)S(=O)(=O)c1ccc(-c2cccc(F)c2)cc1)c1ccccc1 (stereo partly shown)
37 | 1380 nM | C[C@@H](CN(CC(=O)NCc1ccc(CN)cc1)S(=O)(=O)c1ccc(-c2cccc(F)c2)cc1)c1ccccc1 [Compound 203]
38 | 1200 nM | COc1ccccc1CCN(CC(=O)NCc1ccc(CN)cc1)S(=O)(=O)c1ccccc1-c1cccs1
39 | 1000 nM | COc1ccccc1C(C)CN(CC(=O)NCc1ccc(CN)cc1)S(=O)(=O)c1ccc(-c2ccccc2Cl)cc1 (stereo not shown)
40 | 960 nM | CC(CN(CC(=O)NCc1ccc(CN)cc1)S(=O)(=O)c1ccc(-c2cccc(F)c2)cc1)c1ccc(Cl)cc1 (stereo not shown)
41 | 870 nM | CCCCCc1ccc(S(=O)(=O)N(CC(=O)NCc2ccc(CN)cc2)C[C@H](C)c2ccccc2)cc1
42 | 730 nM | Cc1noc(C)c1-c1ccc(S(=O)(=O)N(CC(=O)NCc2ccc(CN)cc2)C[C@H](C)c2ccccc2)cc1
43 | 680 nM | COc1ccccc1CCN(CC(=O)NCc1ccc(CN)cc1)S(=O)(=O)c1ccc(-c2ccc(OC)c(OC)c2OC)s1
44 | 670 nM | COc1ccccc1CCN(CC(=O)NCc1ccc(CN)cc1)S(=O)(=O)c1ccc(-c2ccc(C#N)cc2)s1
45 | 620 nM | Cc1ccc(-c2ccc(S(=O)(=O)N(CC(=O)NCc3ccc(CN)cc3)C[C@@H](C)c3ccccc3)cc2)cc1
46 | 550 nM | COc1ccccc1-c1ccc(S(=O)(=O)N(CC(=O)NCc2ccc(CN)cc2)C[C@H](C)c2ccccc2)cc1 [421]
47 | 510 nM | C[C@@H](CN(CC(=O)NCc1ccc(CN)cc1)S(=O)(=O)c1ccc(-c2cccc(C(F)(F)F)c2)cc1)c1ccccc1
48 | 440 nM | C[C@@H](CN(CC(=O)NCc1ccc(CN)cc1)S(=O)(=O)c1ccc(-c2ccc(C(F)(F)F)cc2)cc1)c1ccccc1
49 | 430 nM | NCCCCCCNC(=O)CN(CCc1ccc2c(c1)OCO2)S(=O)(=O)c1ccc(-c2ccccc2Cl)cc1
50 | 230 nM | CCOc1ccccc1CCN(CC(=O)NCc1ccc(CN)cc1)S(=O)(=O)c1ccc(-c2ccccc2Cl)cc1
51 | 220 nM | Cc1cc(C)c(-c2ccc(S(=O)(=O)N(CC(=O)NCc3ccc(CN)cc3)C[C@@H](C)c3ccccc3)cc2)c(C)c1
52 | 220 nM | C[C@@H](CN(CC(=O)NCCCCCCN)S(=O)(=O)c1ccc(-c2cccc(F)c2)cc1)c1ccccc1
53 | 210 nM | C[C@@H](CN(CC(=O)NCc1ccc(CN)cc1)S(=O)(=O)c1ccc(-c2cccc(C#N)c2)cc1)c1ccccc1
54 | 150 nM | C[C@@H](CN(CC(=O)NCc1ccc(CN)cc1)S(=O)(=O)c1ccc(-c2ccccc2F)cc1)c1ccccc1 [301]
55 | 140 nM | CCC(CN(CC(=O)NCCCCCCN)S(=O)(=O)c1ccc(-c2ccccc2Cl)cc1)c1ccccc1 (stereo not shown)
56 | 110 nM | NCc1ccc(CNC(=O)CN(CCc2c(Cl)cccc2Cl)S(=O)(=O)c2ccc(-c3ccccc3Cl)cc2)cc1
57 | 80 nM | C[C@@H](CN(CC(=O)NCc1ccc(CN)cc1)S(=O)(=O)c1ccc(-c2cccc([N+](=O)[O-])c2)cc1)c1ccccc1
58 | 70 nM | C[C@@H](CN(CC(=O)NCc1ccc(CN)cc1)S(=O)(=O)c1ccc(-c2cccc(N)c2)cc1)c1ccccc1
